Experimental data published in ChEMBL document CHEMBL1177792, “Pre-clinical characterization of aryloxypyridine amides as histamine H3 receptor antagonists: identification of candidates for clinical development” (Bioorg Med Chem Lett, 2010).

Chains of the proteins cited; added tags and fusions are not shown. Lines headed by an entry give the natural chain unless they say otherwise; changes in a name come on top.
UniProt Q9Y5N1: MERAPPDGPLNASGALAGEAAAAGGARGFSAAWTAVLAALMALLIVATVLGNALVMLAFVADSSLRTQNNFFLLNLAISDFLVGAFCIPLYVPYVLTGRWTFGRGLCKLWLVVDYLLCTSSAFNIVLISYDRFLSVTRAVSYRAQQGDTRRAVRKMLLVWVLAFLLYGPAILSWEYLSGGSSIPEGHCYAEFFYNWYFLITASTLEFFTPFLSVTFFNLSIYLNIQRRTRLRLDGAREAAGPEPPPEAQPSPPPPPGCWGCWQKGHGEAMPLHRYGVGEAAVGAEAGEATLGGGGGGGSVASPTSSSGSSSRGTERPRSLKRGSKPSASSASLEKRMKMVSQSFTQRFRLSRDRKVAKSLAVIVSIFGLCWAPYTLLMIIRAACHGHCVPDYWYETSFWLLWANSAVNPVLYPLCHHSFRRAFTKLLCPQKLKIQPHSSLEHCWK
UniProt Q9QYN8: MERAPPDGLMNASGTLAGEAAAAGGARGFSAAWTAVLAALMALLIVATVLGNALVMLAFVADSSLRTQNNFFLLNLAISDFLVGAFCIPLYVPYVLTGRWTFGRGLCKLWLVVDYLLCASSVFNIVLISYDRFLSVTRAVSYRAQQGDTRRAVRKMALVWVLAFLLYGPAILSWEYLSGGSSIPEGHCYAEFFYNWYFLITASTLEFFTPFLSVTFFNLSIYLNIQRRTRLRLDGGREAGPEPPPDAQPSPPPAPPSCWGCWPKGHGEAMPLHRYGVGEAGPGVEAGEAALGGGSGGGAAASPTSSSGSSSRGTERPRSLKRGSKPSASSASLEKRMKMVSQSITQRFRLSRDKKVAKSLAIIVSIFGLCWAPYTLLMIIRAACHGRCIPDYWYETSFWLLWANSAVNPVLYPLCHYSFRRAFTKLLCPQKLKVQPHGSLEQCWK

How the values were obtained:
[1] = biological target: T1, Histamine H3 receptor (Homo sapiens, UniProt Q9Y5N1); test: Displacement of [125I]-iodoproxyfan from human recombinant histamine H3 receptor expressed in human SK-N-MC cells after 1 hr by scintillation counting; format: cell-based
[2] = biological target: T1, Histamine H3 receptor; test: Antagonist activity at human histamine H3 receptor expressed in human SK-N-MC cells assessed as inhibition of forskolin-induced cAMP accumulation after 6 hrs; format: functional, cell-based; conditions: read-out: pA2 (converted)
[3] = biological target: T2, Histamine H3 receptor (Rattus norvegicus, UniProt Q9QYN8); test: Antagonist activity at rat histamine H3 receptor expressed in human SK-N-MC cells assessed as inhibition of forskolin-induced cAMP accumulation after 6 hrs; format: functional, cell-based; conditions: read-out: pA2 (converted)
[4] = biological target: T2, Histamine H3 receptor; test: Binding affinity to histamine H3 receptor in rat brain; format: tissue-based

Ki [1]: 1.4 nM
Kb [2]: 0.38 nM
Kb [3]: 3.55 nM
Ki [4]: 23 nM
Compound: O=C(c1ccc(Oc2ccc(F)cc2)nc1)N1CCCN(C2CCC2)CC1 [JNJ-39220675]
